In paper PMC10660311, “Synthetic Dual Cysteine-ADP Ribosylated Peptides from the Androgen Receptor are Recognized by the DTX3L/PARP9 Complex” (ACS Chemical Biology, 2023):

What was measured:
[1] = biological target: dual ADP-ribosylated AR peptide 1, bis-ADP-ribosylated AR(280-294): CF-RPTPC(ADPr)APLAEC(ADPr)KGSL-OH; experiment: fluorescence polarisation; 50 nM CF-labelled AR peptide; recombinant protein or preassembled complex titrated (2500 nM or 2000 nM highest, 2-fold serial dilution); 20 mM Tris-HCl pH 7.5, 50 mM NaCl, 0.1 mM EDTA, 2 mM DTT; RT, 45 min; triplicate; fit for specific binding with Hill slope
[2] = biological target: dual ADP-ribosylated AR peptide 1, bis-ADP-ribosylated AR(280-294): CF-RPTPC(ADPr)APLAEC(ADPr)KGSL-OH; experiment: fluorescence polarisation; as a1 with 50 uM free ADP-ribose added as competitor; complex up to 2000 nM

- Kd [1]: 80.5 nM
- percent of binding left with 50 uM free ADP-ribose [2]: 17%
Substance: DTX3L/PARP9 complex (from UniProt Q8TDB6 1-740; Q8IXQ6 1-854)
